Measurements as given in patent US20050180956A1, “SSAO enzyme substrates for vasorelaxation, and methods of use thereof” (priority 2004, published 2005).
Some compounds may have been tested in ways that are not shown here.

Assays:
[1] = tested on: human right saphenous vein (RSV); test: Vascular ring physiology, isolated human right saphenous vein rings; conditions: NE-precontracted RSV; MA 1 mmol/L or SNP 100 μmol/L, 30-40 min
[2] = tested on: cGMP level in human RSV; test: cGMP ELISA assay in RSV segments

Question: How did the “% Relaxation, RSV” value [1] turn out when sodium nitroprusside was run?
Answer: The value was 100 ± 0%.

Question: And the “[cGMP], RSV” value ([2]; NE-precontracted RSV, MA 1 mmol/L or SNP 100 μmol/L, 30-40 min, control 0.118 ± 0.028)?
Answer: The value was 0.322 ± 0.065 pmol/mg.

Question: What about the “fold increase in cGMP levels in NE-precontracted RSV” value ([2]; SNP 100 μmol/L, statistically significant vs control) of the same substance?
Answer: Its value is 3 fold.
